Assay results as given in article PMC6471177 (Pharmaceutics, 2019).

Sequences of proteins named here, by UniProt entry; tags and fusion partners are left off.
UniProt P08183, whole entry: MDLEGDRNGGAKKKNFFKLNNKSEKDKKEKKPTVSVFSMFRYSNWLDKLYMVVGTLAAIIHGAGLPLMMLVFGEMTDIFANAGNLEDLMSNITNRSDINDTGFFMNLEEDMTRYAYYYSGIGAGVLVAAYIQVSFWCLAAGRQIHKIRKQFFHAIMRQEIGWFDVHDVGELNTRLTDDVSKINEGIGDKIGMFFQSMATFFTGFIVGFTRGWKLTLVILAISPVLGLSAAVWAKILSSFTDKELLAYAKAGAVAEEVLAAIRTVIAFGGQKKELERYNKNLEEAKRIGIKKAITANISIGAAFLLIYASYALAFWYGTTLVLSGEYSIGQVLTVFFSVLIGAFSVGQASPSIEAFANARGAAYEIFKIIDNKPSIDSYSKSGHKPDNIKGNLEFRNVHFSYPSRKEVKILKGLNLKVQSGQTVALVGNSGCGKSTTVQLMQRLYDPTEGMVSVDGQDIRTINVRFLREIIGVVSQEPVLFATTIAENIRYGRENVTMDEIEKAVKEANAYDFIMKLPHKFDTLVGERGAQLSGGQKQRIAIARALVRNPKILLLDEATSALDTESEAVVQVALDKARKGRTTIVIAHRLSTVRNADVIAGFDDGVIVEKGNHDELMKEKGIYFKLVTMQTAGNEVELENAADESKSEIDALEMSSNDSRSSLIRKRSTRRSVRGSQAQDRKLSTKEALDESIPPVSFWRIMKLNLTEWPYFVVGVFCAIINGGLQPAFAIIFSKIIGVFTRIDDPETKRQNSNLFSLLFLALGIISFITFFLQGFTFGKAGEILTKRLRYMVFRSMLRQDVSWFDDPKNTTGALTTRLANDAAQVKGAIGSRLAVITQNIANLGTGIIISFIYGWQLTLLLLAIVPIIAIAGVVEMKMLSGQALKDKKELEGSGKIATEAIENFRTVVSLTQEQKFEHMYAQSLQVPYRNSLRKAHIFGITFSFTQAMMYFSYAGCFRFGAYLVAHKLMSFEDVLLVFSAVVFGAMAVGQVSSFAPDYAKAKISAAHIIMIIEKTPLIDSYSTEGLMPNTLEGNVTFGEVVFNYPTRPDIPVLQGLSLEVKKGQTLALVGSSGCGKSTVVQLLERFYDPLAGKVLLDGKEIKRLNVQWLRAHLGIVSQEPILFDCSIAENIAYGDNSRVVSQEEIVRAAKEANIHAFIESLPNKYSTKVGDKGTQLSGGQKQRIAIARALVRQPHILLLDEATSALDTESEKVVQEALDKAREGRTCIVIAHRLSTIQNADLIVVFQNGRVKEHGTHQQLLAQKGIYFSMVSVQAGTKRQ

Columns and labels:
P-gp [1] = system: P-gp
P-gp [2] = biological target: P-gp (Homo sapiens, UniProt P08183); conditions: Caco-2

Papp Absorptive (M to S) of rhodamine-123 (P-gp [1]): 0.105 ± 0.0387 × 10^−6 cm/s | Papp Secretory (S to M) of rhodamine-123 (P-gp [1]): 0.629 ± 0.160 ^a × 10^−6 cm/s | Efflux Ratio of rhodamine-123 (P-gp [2]): 6.49 | Papp Absorptive (A to B) of rhodamine-123 (P-gp [2]): 0.231 ± 0.0388 × 10^−6 cm/s | Papp Secretory (B to A) of rhodamine-123 (P-gp [2]): 1.50 ± 0.113 ^a × 10^−6 cm/s
Substance: rhodamine-123

Marks after values point to notes of the source that are not given here.
